This note sets out measurements from patent US20080064871A1, “Production Method of Nitrogen-Containing Fused Ring Compounds” (Japan Tobacco Inc., priority 2006, published 2008).

Sequences of proteins named here, by UniProt entry; tags and fusion partners are left off.
UniProt Q96S37, whole entry: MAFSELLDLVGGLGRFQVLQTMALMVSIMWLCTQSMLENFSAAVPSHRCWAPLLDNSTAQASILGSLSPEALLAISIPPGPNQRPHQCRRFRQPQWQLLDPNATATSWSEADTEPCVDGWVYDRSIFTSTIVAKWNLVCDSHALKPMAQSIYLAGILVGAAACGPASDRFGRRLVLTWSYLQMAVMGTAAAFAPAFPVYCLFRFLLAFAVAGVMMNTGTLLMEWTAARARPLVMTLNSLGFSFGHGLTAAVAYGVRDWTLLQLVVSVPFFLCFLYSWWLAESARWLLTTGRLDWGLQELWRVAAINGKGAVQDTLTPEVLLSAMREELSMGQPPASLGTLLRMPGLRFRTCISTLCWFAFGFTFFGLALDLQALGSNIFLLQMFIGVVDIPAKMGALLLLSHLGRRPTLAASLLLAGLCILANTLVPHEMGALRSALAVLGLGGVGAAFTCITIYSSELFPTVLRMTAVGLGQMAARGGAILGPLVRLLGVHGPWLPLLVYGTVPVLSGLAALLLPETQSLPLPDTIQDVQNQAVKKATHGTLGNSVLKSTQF
UniProt P11712, whole entry: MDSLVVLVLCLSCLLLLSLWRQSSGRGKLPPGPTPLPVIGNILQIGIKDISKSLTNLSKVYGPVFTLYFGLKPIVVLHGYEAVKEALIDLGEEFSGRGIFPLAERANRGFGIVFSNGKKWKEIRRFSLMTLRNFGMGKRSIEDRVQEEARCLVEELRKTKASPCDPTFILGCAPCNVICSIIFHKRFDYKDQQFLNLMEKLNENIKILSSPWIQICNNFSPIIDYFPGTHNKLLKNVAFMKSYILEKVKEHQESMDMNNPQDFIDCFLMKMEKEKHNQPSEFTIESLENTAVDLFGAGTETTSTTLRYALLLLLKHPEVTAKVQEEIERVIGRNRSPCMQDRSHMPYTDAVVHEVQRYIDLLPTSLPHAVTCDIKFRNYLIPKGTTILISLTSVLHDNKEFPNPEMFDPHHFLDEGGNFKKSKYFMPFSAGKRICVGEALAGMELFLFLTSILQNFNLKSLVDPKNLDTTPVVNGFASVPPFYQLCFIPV

Some results are limits rather than exact numbers.

For the first data set, the target named is human URAT1 (Homo sapiens, UniProt Q96S37). Briefly: Uric acid transport inhibitory test using human URAT1-expressing cells. The settings on record: read-out: hURAT1 (IC50, concentration necessary for inhibiting the uric acid transport rate by 50%); human URAT1 expressing HEK293 cells, uptake of 14C-labeled uric acid for 5 min, room temperature. From the text:
Reference Experimental Example 1 Uric Acid Transport Inhibitory Test Using Human Urat1-Expressing Cells
Human URAT1 full length cDNA was subcloned to expression vector pcDNA3.1 and human URAT1 gene was transfected into human embryonic kidney derived cell line (HEK293 cells) by liposome method using Lipofectamine2000. Simultaneously, HEK293 cells transfected with expression vector pcDNA3.1 alone (hereinafter mock cells) were also produced. HEK293 cells expressing human URAT1 gene or mock cells were selected with geneticin resistance as an index. The functional expression of human URAT1 gene was confirmed by a method similar to the following method, using transport of uric acid labeled with ^14C into the cells as an index.
Human URAT1 expressing HEK293 cells or mock cells were cultured in Dulbecco's modified Eagle's MEM medium (high glucose) containing 10% fetal bovine serum, 0.5 mg/mL geneticin sulfate, 100 units/mL penicillin and 100 μg/mL streptomycin under the conditions of 37° C. and 5% CO2 in an incubator. […]
After the medium was removed by aspiration from each well, the cells were washed once with Hank's Balanced Salt Solution (HBSS) and preincubated with HBSS ([…]/well) for 5 min. […] The cells were lysed by stirring and the radioactivity of each well was measured in a liquid scintillation counter (TOP COUNT, Packard). […]
Take `Nc1c(Cl)cc(C(=O)N2CCOc3ccccc32)cc1Cl`: the IC50 was in the range of 0.1 to 1 µM.

The target in a further data set is CYP2C9 (Homo sapiens, UniProt P11712). Briefly: CYP inhibitory test using human liver microsome. Conditions: read-out: CYP2C9 inhibition IC50, model substrate diclofenac, 37° C. 10 min, LC/MS/MS. Here is the method:
Reference Experimental Example 2 Cyp Inhibitory Test Using Human Liver Microsome
Human liver microsome (20 mg protein/mL, 5 μL, Xenotech LLC, purchased from Lenexa Kans.) was suspended in 100 mM potassium phosphate buffer (70 μL, pH 7.4), mixed with a solution (0.5 μL) of the Example compound dissolved in DMSO and preincubated at 37° C. for 5 min. NADPH producing system coenzyme solution (β-nicotinamide adenine dinucleotide phosphate: 5.2 mM, D-glucose-6-phosphate: 13.2 mM, magnesium chloride: 13.2 mM, glucose-6-phosphate dehydrogenase: 1.8 U/mL) 25 μL, and a model substrate (CYP3A4: midazolam 1 mM, CYP2D6: bufuralol 1 mM, CYP2C9: diclofenac 2 mM) 0.5 μL dissolved in DMSO were added to start the reaction. After incubation at 37° C. for 10 min., acetonitrile (200 μL) containing an internal standard substance (propranolol 1 μM) was added and the mixture was centrifuged (room temperature, 3000 rpm, 20 min). The amount of the metabolite produced from each model substrate in the supernatant was measured by high performance liquid chromatography/mass spectrometry (LC/MS/MS) and each CYP enzyme activity was determined. The concentration showing 50% inhibition (IC50) was calculated relative to the enzyme activity without addition of Example compound (DMSO 0.5 μL added) as 100%.
For orientation: Liver microsomes are a subcellular fraction often used to study metabolism.
For `O=C(c1cc(Cl)nc(Cl)c1)N1CCOc2ccccc21`, the IC50 is above 50 µM.
As for `O=C(O)c1ccc(C(=O)N2CCOc3ccccc32)cc1`, the IC50 is above 50 µM.
For `COC(=O)c1cccc(C(=O)N2CCOc3ccccc32)c1`, the IC50 was above 50 µM.
`O=C(O)c1cccc(C(=O)N2CCOc3ccccc32)c1`: the IC50 is above 50 µM.
On the same count and under the same terms, then `O=C(O)c1ccccc1C(=O)N1CCOc2ccccc21`, with above 50 µM; and `O=C(c1ccc([N+](=O)[O-])cc1)N1CCOc2ccccc21`, with above 50 µM.
Turning to `COC(=O)c1ccc(C(=O)N2CCOc3ccccc32)cc1`, the IC50 was above 50 µM.
On the same count and under the same terms, then `O=C(c1cc(Cl)cc(Cl)c1)N1CCOc2ccccc21`, with above 50 µM.
